{
  "sequences": {"note": "By UniProt entry, the sequences of proteins in these tests, tags left out.", "UniProt P28482, whole entry": "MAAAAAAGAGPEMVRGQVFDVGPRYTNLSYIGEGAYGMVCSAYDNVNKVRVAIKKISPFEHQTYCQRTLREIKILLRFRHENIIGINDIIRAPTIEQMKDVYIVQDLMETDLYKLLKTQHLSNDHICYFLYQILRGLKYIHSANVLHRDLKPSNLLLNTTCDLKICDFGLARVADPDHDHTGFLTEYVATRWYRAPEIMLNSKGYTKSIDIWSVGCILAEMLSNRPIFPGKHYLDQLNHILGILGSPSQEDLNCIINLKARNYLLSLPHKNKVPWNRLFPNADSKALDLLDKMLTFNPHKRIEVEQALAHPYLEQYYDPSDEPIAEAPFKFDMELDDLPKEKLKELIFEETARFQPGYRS"},
  "source": "patent US9884048B2",
  "about": "“ERK inhibitors” (Merck Sharp & Dohme Corp., priority 2014, dated 2018)",
  "biological_target": "phosphorylated active hERK2 enzyme (Homo sapiens (Human), UniProt P28482)",
  "conditions": "ERK2 IC50, IMAP-FP assay; 0.5 nM hERK2, 30 μM ATP; 10 point titration, 3 μM starting concentration",
  "data": [
    {"smiles": "Cc1cc(-n2ncc3cc(NC(=O)N[C@H]4CCC[C@@H]4OCCCc4ccccc4)ncc32)ccn1", "note": "(racemic) [Example 162, Racemic trans 1-[1-(2-methylpyridin-4-yl)-1H-pyrazolo[3,4-c]pyridin-5-yl]-3-[(1S,2S)and (1R,2R)-2-(3-phenylpropoxy)cyclopentyl] urea]", "values": [
      {"measurement": "IC50", "result": 205, "unit": "nM"}
    ]}
  ]
}
